Data published in patent publication US20080008768A1, “Compositions and Methods for Inhibiting Sonic Hedgehog Activity” (priority 2004, published 2008).

Key:
[1] = system: Shh-dependent pancreatic cancer cell line L3.6pl; settings: inhibitor 10 μM, normalized to cell growth in carrier
Shh signaling = settings: Shh-Light 2 cells; Taipale, et al. (2000); Zeng, et al. (2001); cited from earlier work

CC1=C2C[C@H]3[C@@H](CC=C4C[C@@H](O)CC[C@@]43C)[C@@H]2CC[C@]12O[C@@H]1C[C@H](C)CN[C@H]1[C@H]2C [Cyclopamine, reference compound]
Cell Growth (normalized) [1]: 0.7509
Effect on Shh-activated reporter activity (in words) (Shh signaling): antagonized
